The target of this experiment is T1, gastrin-releasing peptide receptor (GRPR) (UniProt P30550 1-384, limits assumed).
T1 construct: whole, on cells; Endogenous receptor on PC3 and H441 cells, xenograft tumors or PC3 cell lysate; the cell lines are human; also called GRP receptor
As to the kind of experiment: Scatchard plot from absorbance-based (ELISA type) assay on wells of PC3 cell lysate.

By UniProt entry, the sequences of proteins in these tests, tags left out. Where a name states a change or a piece, a line headed by the entry shows the natural chain unless it says otherwise.
UniProt P30550: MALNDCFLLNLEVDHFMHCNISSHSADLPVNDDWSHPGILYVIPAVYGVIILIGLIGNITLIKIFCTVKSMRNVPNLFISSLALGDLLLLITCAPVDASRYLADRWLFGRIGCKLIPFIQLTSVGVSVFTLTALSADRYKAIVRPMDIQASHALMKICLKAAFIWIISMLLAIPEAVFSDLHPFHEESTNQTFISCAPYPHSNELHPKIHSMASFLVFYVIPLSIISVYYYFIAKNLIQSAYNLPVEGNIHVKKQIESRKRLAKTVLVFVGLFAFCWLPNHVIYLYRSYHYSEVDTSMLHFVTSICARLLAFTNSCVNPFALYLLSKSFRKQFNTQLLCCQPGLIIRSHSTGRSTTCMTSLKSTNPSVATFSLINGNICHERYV

B1: ProCA1B14 (designed binder)
chain: RDSGTVWGALGHGIELNIPNFQMTDDIDEVRWERGSTLVAEFKRKMKPFLKSGGSGGEQRLGNQWAVGHLMGGSGGAFEIDANGDLDIKNLTRDDSGTYNVTVYSTNGTRILNKALDLRILE
modifications: Gd3+ binding site; PEGylated and conjugated with NIR dye Cy5.5 for the in vivo experiments
notes: Bombesin variant B14 grafted into ProCA1 with GGSGG linkers; also called ProCAB14
In turn, B1 came in with a Kd of 2.8 nM.
